US7683063B2

The chains behind the UniProt entries cited, without tags or fusion partners.
UniProt Q8NER1, whole entry: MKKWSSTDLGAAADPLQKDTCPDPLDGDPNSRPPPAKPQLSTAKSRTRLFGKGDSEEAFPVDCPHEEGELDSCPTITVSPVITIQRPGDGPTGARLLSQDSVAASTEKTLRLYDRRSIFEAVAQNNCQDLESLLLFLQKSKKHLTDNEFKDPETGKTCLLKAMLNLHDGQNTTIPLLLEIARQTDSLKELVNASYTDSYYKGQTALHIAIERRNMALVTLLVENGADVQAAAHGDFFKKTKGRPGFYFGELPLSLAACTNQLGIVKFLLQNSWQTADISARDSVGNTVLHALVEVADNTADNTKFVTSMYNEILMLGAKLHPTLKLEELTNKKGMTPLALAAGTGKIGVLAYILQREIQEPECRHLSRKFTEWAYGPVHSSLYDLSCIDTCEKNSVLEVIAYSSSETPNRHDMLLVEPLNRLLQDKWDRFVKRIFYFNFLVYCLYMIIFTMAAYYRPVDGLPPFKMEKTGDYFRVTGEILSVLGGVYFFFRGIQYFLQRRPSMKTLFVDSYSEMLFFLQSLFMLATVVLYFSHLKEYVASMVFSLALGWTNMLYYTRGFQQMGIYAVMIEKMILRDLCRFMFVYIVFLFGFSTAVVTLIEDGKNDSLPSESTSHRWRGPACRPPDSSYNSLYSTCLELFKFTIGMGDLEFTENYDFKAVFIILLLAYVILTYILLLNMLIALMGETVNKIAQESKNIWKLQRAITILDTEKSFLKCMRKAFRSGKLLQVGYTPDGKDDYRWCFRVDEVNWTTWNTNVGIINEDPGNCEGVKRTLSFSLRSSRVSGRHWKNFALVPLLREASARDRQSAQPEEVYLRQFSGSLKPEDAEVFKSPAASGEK

Experiments:
human VR1 [1] = biological target: T1, human VR1 (Homo sapiens, UniProt Q8NER1); experiment: pH-based assay, calcium influx in VR1-expressing cells (FLIPR); conditions: HEK293-EcR cells induced with 5 μM PonA to express human VR1; Fluo-4; activation by agonist buffer giving pH 5.5; compound about 50 pM to about 3 μM
Protocol: (§1) Human VR1 cloning. Human spinal cord RNA (commercially available from Clontech, Palo Alto, Calif.) was used. Reverse transcription was conducted on 1.0 μg total RNA using Thermoscript Reverse Transcriptase (commercially available from Invitrogen, Carlsbad, Calif.) and oligo dT primers as detailed in its product description. Reverse transcription reactions were incubated at 55° C. for 1 h, heat-inactivated at 85° C. for 5 min, and RNase H-treated at 37° C. for 20 min.
(§2) Human VR1 cDNA sequence was obtained by comparison of the human genomic sequence, prior to annotation, to the published rat sequence. Intron sequences were removed and flanking exonic sequences were joined to generate the hypothetical human cDNA. Primers flanking the coding region of human VR1 were designed as follows: forward primer, […]; and reverse primer, […].
(§3) PCR of VR1 was performed on one tenth of the Reverse transcription reaction mixture using Expand Long Template Polymerase and Expand Buffer 2 in a final volume of 50 μL according to the manufacturer's instructions (Roche Applied Sciences, Indianapolis, Ind.). […]
(§4) Generation of inducible cell lines. […] On the day of assay, cells were loaded with Fluo-4 (a calcium-sensitive dye that is commercially available from Molecular Probes, Eugene, Oreg.) and CAP-mediated calcium influx was measured using a FLIPR as described below. […]

human VR1 [2] = biological target: T1, human VR1; experiment: Capsaicin-based assay, calcium influx in VR1-expressing cells (FLIPR); conditions: HEK293-EcR cells induced with 5 μM PonA to express human VR1; Fluo-4; activation by 50 μL of capsaicin (400 nM); compound about 50 pM to about 3 μM
Protocol: as §1, §2, §3, §4

SMILES: Cc1cccnc1N1CC=C(C(=O)Nc2ccc(C(C)C)cc2)CC1
- IC50 (human VR1 [1]): 148 nM
- IC50 (human VR1 [2]): 4.4 nM
